Only a part is listed here, and it is no random draw. The source made the active and inactive calls. Rule as the data show it: active = inhibition mostly above about 39% (no sharp cut-off); inactive = mostly below about 34%.
molecular target: Sentrin-specific protease 8 (Homo sapiens) (UniProt Q96LD8); test: retest of SENP8 deneddylase blockers – biochemical, Nedd8 protein substrate, single concentration, confirmation (AID 624319); conditions: purified SENP8, Nedd8-AMC/pro-Nedd8 cleavage fluorescence, 30 min; at 25 µM; hits give high values

The chains behind the UniProt entries cited, without tags or fusion partners.
UniProt Q96LD8, whole entry: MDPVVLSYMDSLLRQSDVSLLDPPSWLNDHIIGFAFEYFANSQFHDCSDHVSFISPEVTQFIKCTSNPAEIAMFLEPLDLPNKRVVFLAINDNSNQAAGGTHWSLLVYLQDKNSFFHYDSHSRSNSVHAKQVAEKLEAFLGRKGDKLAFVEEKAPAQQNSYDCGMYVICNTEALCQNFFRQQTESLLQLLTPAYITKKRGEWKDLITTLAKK

| SMILES | inhibition |
| --- | --- |
| CN(C)C(=O)c1c([N+](=O)[O-])cc([N+](=O)[O-])cc1[N+](=O)[O-] | active: 69.4% |
| O=[N+]([O-])c1cc([N+](=O)[O-])c(Nc2ccccn2)c([N+](=O)[O-])c1 | active: 58.6% |
| O=[N+]([O-])c1cc([N+](=O)[O-])c(Nc2cccnc2)c([N+](=O)[O-])c1 | inactive: 37.9% |
| CCc1ccc(OP(C)(=O)N2CCN(c3ccc([N+](=O)[O-])cc3)CC2)cc1 (stereo not given) | inactive: 14.7% |
| Cc1ccc(Nc2c([N+](=O)[O-])cc([N+](=O)[O-])cc2[N+](=O)[O-])cc1 | inactive: 39.6% |

Source: PubChem BioAssay AID624319 (Sanford-Burnham Center for Chemical Genomics, 2012)
